{"sequences": {"note": "Sequences of proteins named here, by UniProt entry; tags and fusion partners are left off. Residues count along the entry.", "UniProt O00444, 1-391 limits assumed": "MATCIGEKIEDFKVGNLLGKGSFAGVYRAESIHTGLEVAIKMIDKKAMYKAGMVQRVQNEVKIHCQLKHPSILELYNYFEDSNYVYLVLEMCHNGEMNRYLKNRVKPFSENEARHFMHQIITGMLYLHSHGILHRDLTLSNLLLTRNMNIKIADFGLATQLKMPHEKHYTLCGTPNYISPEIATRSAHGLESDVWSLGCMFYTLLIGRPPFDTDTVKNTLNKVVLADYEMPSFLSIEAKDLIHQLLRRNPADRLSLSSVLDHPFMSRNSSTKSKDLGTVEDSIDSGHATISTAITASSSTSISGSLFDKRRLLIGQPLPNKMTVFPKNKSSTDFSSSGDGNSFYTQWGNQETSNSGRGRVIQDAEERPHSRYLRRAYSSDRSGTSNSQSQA"}, "source": "patent US9907800B2", "about": "“Kinase inhibitors and method of treating cancer” (University Health Network, priority 2010, dated 2018)", "target": "human PLK4 (Homo sapiens (Human), UniProt O00444)", "assay": "PLK4 inhibition assay (indirect ELISA)", "assay_type": "biochemical", "settings": "read-out: PLK4 IC50 Ranges", "data": [{"smiles": "O=C1Nc2ccccc2[C@]12CC2c1ccc2c(I)n[nH]c2c1", "note": "(relative stereo)", "values": [{"measurement": "IC50", "result": "100 to 1000", "unit": "nM"}]}]}
